What all share (assay): pyrene-actin polymerization assay; 5 µM c-actin with pyrene-labeled skeletal muscle actin added at 20:1, G-buffer; polymerization induced by 2 mM MgCl2 and 0.1 M KCl; rise of pyrene fluorescence; control without nucleator
Experiment [1] has as its target human cardiac α-actin mutant p.R312H (human).
For experiment [2], the target named is human cardiac α-actin mutant p.A295S (human).
Experiment [3] has as its target human cardiac α-actin mutant p.E361G (human).

The values that follow come from PMC8301065.

Substance “human cardiac α-actin mutant p.R312H (natural protein)” displayed a half time of polymerization (t1/2) in experiment [1] of 13.8 min.
Substance “human cardiac α-actin mutant p.A295S (natural protein)” came in with a half time of polymerization (t1/2) in experiment [2] of 12.2 min.
In experiment [3], “human cardiac α-actin mutant p.E361G (natural protein)” had a half time of polymerization (t1/2) of 4 min.
